Values of other authors as cited in patent US9072741B2, “Methods of treating liver fibrosis and pre-cirrhosis with epidermal growth factor receptor inhibitors” (The General Hospital Corporation, priority 2009, dated 2015).

System: advanced HCC
Conditions: clinical trial (Zhu et al.); cited from earlier work

For “cetuximab: monoclonal antibody that selectively binds to the EGFR (Erbitux)”, the “responses in advanced HCC patients” value is given as “no responses were seen”.
